What was measured:
[1] = molecular target: 6His-CaM7 (Arabidopsis thaliana), P59220; experiment: ITC at 25 C, peptide titrated into 6His-CaM7, 1 mM Ca2+
[2] = molecular target: 6His-CaM7 (Arabidopsis thaliana), P59220; experiment: ITC at 25 C, peptide titrated into 6His-CaM7, Ca2+ chelated with 2 mM EGTA
[3] = molecular target: 6His-CaM7 (Arabidopsis thaliana), P59220; experiment: ITC at 25 C, peptide titrated into 6His-CaM7

Row | Kd [1] [µM] | Kd [2] [µM] | Kd [3] [µM] | Binder
1 | 7.58 | 279 |  | DQQQNHDSSSMRSTRLQRFLSL (modifications not checked) [CBD peptide]
2 |  |  | 71.3 | DQQQNHDSTRLQRFLSL (modifications not checked) [mutated CBD peptide]

Reference: patent US20250270584A1, “Gene editing to provide insect resistance in crops” (The Regents of the University of California, priority 2022, published 2025)
